Assay results reported in publication PMC6613765 (Journal of Virology, 2019).

Test system: DBT cells
Settings: read-out: MHV-A59 CC50

Q: For Monensin sodium, which CC50 is on record?
A: > 20 µM
